Among the data in publication PMC4250329 (Bioorganic & medicinal chemistry letters, 2014) are IC50 values, retold here.

Some results are limits rather than exact numbers.

The subject of this experiment is 686LN. In words: Growth inhibition of HNSCC cell line 686LN. The class given is cell-based. Conditions: read-out: 686LN IC50.

Regarding `CC(C)(C)c1nc2c3ccc(F)cc3c3c(=O)[nH]ccc3c2[nH]1` [compound 6, reference compound], the IC50 was above 5 µM.
